Laboratory results taken from PubChem BioAssay AID2057 (The Scripps Research Institute Molecular Screening Center, 2009).
The list shows a part of the results, in another mix than the full data. Calls of active or inactive are those of the source.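 How the source made its calls: active means inhibition above the mean inhibition of all tested compounds plus 3 SD, set per campaign (cut at about 40% in these data); inactive means the rest.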

Protein sequences, listed by entry. Tags and fused reporters are not part of them.
UniProt Q07820, whole entry, looked up: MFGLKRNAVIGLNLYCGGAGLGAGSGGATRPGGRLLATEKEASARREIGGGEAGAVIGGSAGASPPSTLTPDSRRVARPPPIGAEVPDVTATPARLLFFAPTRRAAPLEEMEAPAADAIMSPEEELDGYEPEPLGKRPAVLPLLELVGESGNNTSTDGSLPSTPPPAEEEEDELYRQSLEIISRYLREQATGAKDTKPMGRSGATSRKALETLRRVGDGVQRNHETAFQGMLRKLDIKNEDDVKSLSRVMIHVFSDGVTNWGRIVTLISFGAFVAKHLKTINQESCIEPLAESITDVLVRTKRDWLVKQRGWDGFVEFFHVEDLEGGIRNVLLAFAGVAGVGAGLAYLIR

These compounds were tested against Induced myeloid leukemia cell differentiation protein Mcl-1 (Homo sapiens) (UniProt Q07820) (assay: MCL1-BIM peptide interaction disruptors – biochemical, fluorescence polarization, primary screen (AID 2057;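 further: 0% = DMSO wells and 100% = unlabeled Bim-BH3 peptide control; higher means more loss of mP so more displacement of Bim peptide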)). Conditions: GST-MCL1 / FITC-Bim-BH3 fluorescence polarization; at 10.9 µM; active compounds read high.

Structure (SMILES)	inhibition
COc1ccccc1OP(=O)(Nc1ccc(C)cn1)Oc1ccccc1OC	inactive: 0.77%
Cc1ccc(OP(=O)(Nc2nccs2)Oc2ccc(C)cc2)cc1	inactive: -2.69%
Clc1ccc(Cl)c(NC2=NCC(CBr)S2)c1 (centres undefined)	inactive: 0.59%
CN1CCCC(OC(=O)C(c2ccccc2)c2ccccc2)C1 (centres undefined)	inactive: 3.99%
NC(=O)c1cc([N+](=O)[O-])cc([N+](=O)[O-])c1N	inactive: -11.9%
CN(C(=O)Cc1ccc(Cl)c(Cl)c1)[C@H]1CCCC[C@H]1N1CCCC1	inactive: 4.75%
Cc1ccc(N/C(=N/P(=O)(N2CCOCC2)N2CCOCC2)N2CCOCC2)cc1	inactive: 5.99%
CC(C)CC(=O)NC(Sc1ccc(Cl)cc1)C(Cl)(Cl)Cl (centres undefined)	inactive: 3.05%
Nc1cc(N)c2nonc2c1[N+](=O)[O-]	inactive: -1.35%
Oc1ccccc1CNc1ccccn1	inactive: -0.53%
Cc1c2non([O-])c-2c(C)[n+](=O)[n+]1[O-]	inactive: -0.35%
O=C(NC(Sc1ccncn1)C(Cl)(Cl)Cl)c1ccccc1 (centres undefined)	inactive: 10.4%
CCOP(=O)(Nc1ccccc1)OCC	inactive: 3.77%
Cc1cc(SC(NC(=O)c2ccc(F)cc2)C(Cl)(Cl)Cl)ncn1 (centres undefined)	inactive: -2.19%
Cc1ccc(NP(=O)(Oc2ccccc2F)Oc2ccccc2F)nc1	inactive: 0.32%
CN(C(=O)Cc1ccc(Cl)c(Cl)c1)[C@H]1CCCC[C@@H]1N1CCCC1	active: 50.5%
O=C(O)c1ccccc1[As](=O)(O)O	inactive: 1.23%
CC(=O)Nc1ccc([As](=O)(O)O)cc1	inactive: 4.96%
O=P(Nc1nc2ccc(Cl)cc2s1)(c1ccccc1)c1ccccc1	inactive: 4.8%
CCN(N=Nc1nonc1N)c1nonc1N	inactive: -2.93%
O=[N+]([O-])c1cc([N+](=O)[O-])c(CCN2CCOCC2)c([N+](=O)[O-])c1	inactive: 24.5%
O=C(Nc1cc([As](=O)(O)O)ccc1O)c1ccccc1	inactive: -5.31%

Structure (SMILES)	inhibition
O=[N+]([O-])c1cccc(NC2=NCC(CBr)S2)c1 (centres undefined)	inactive: 1.49%
O=[N+]([O-])c1ncn(CCn2ncnc2[N+](=O)[O-])n1	inactive: -12.3%
O=[N+]([O-])c1cccc2n[nH]nc12	inactive: -1.68%
CC(=O)N1C2C3N(C(C)=O)C1C1N(C(C)=O)C(C(N1C(C)=O)N3C(C)=O)N2C(C)=O	inactive: -1.45%
Cc1ccc(NP(=O)(Oc2ccccc2)Oc2ccccc2)nc1	inactive: -10.3%
CCc1nc2c(n1)c1c(non1O)c1c2no[n+]1[O-]	inactive: 1.91%
O=[N+]([O-])c1cc([N+](=O)[O-])c(CCNc2ccccc2)c([N+](=O)[O-])c1	inactive: -3.75%
COc1ccc(C2=NCC(CBr)S2)cc1 (centres undefined)	inactive: 0.35%
CC(C)=N/N=C(\N)N[N+](=O)[O-]	inactive: 6.04%
CN(C)C(=O)OCCc1n(C)cc[n+]1C	inactive: -2.59%
CC1CCN(C(=O)Oc2c(Cl)cc(Cl)c3cccnc23)CC1	inactive: -4.05%
Nc1ccc([As](=O)(O)c2ccc(N)cc2)cc1	inactive: -5.86%
C[N+]1=C2C=CC=CC=C2SC12C([N+](=O)[O-])=CC([N+](=O)[O-])=C[C-]2[N+](=O)[O-] (centres undefined)	active: 66.5%
CCN(/C(=N/P(=O)(N1CCOCC1)N1CCOCC1)N1CCOCC1)c1ccc(OC)cc1	inactive: 11.8%
c1nnnn1CCn1cnnn1	inactive: -4.65%
CC(C)C(=O)NC(Sc1ccccc1)C(Cl)(Cl)Cl (centres undefined)	inactive: 7.04%
O=P(Nc1nccs1)(c1ccccc1)c1ccccc1	inactive: 1.73%
O=P(Nc1nc2ccccc2s1)(c1ccccc1)c1ccccc1	inactive: 8.13%
C[C@H]1OP(=O)(Oc2ccccc2)[C@H](O)[C@H](O)[C@H]1N=[N+]=[N-] (some centres undefined)	inactive: 1.25%
O=P(Nc1ccccn1)(c1ccc(Br)cc1)c1ccc(Br)cc1	inactive: -0.72%
CN(C)C1(CNC(=O)c2ccc(Cl)c(S(N)(=O)=O)c2)CCCCC1	inactive: -7.03%
Nc1ccc([As](=O)(O)c2ccc([N+](=O)[O-])cc2)cc1	inactive: 5.72%

Structure (SMILES)	inhibition
C(Cc1nn[nH]n1)Cc1nn[nH]n1	inactive: 12.9%
O=C(OC1CN2CCC1CC2)c1cccc(Cl)c1 (centres undefined)	inactive: -4.9%
O=[N+]([O-])c1ccc(O)c(/C=N/Nc2ccc([N+](=O)[O-])cc2[N+](=O)[O-])c1	inactive: 4.26%
O=[N+]([O-])c1ncn(CCn2cnc([N+](=O)[O-])n2)n1	inactive: -1.11%
CC(=O)NC(SC(=S)N(C)C)C(Cl)(Cl)Cl (centres undefined)	inactive: 4.92%
O=[As](O)(c1ccccc1)c1ccc(O)cc1	inactive: 3.38%
CCNC(=S)/N=C(\N)N[N+](=O)[O-]	inactive: 3.21%
O=C(NC1CCS(=O)(=O)C1)NP(=S)(Oc1ccccc1)Oc1ccccc1 (centres undefined)	inactive: -1.19%
c1ccc(-c2nn[nH]n2)c(-c2nn[nH]n2)c1	inactive: 6.35%
CCOC(=O)NC(Sc1ccccc1)C(Cl)(Cl)Cl (centres undefined)	inactive: 12.5%
Cc1ccc(NP(=O)(Oc2cccc(C)c2)Oc2cccc(C)c2)nc1	inactive: 0.59%
Cc1ccccc1OP(=O)(Nc1ccccn1)Oc1ccccc1C	inactive: 1.48%
CN(C)C(=O)Oc1noc2ccccc12	inactive: 9.1%
COC(=O)c1cc2c(s1)N=C(c1ccccc1)N(C)P2(=O)N1CCOCC1 (centres undefined)	inactive: 2.87%
Cc1ccc(OP(=O)(Nc2ccccn2)Oc2ccc(C)cc2)cc1	inactive: 1.49%
CC(=O)NC(SC(=S)N(CC(C)C)CC(C)C)C(Cl)(Cl)Cl (centres undefined)	inactive: -2.63%
O=C(OC1CN2CCC1CC2)c1ccccc1 (centres undefined)	inactive: -7.89%
CCC(=O)N1C2C3N(C(=O)CC)C1C1N(C(=O)CC)C(C(N1C(=O)CC)N3C(=O)CC)N2C(=O)CC	inactive: -0.1%
CC(C)(C)C(=O)NC(Sc1ccccc1)C(Cl)(Cl)Cl (centres undefined)	inactive: -3.3%
O=P1(Nc2nc3ccc(Cl)cc3s2)COc2ccccc2O1 (centres undefined)	inactive: 6.11%
